This passage reports activation results from PubChem BioAssay AID624171 (National Center for Advancing Translational Sciences (NCATS), 2012).

Structures are written as SMILES. Only a part is listed here, and it is no random draw. Active and inactive are the calls of the source. Calls come from the whole dose curve; as a rule, active = well fitted activation curve with a large enough effect; inconclusive = small, poorly fitted or top-dose-only effect; inactive = flat fitted curve, though single readings scatter.

This test in a line: qHTS of Nrf2 Activators. Note: % of control where 0% means no effect; nearly all actives have a fitted effect of over 65% in size. Conditions: AREc32 ARE-luciferase reporter (MCF7-derived line), luminescence, 24 h; at 46.1 µM (top of the series) unless noted. The text has this: Many diseases have some form of oxidative stress injury and ties to inflammation, causing a host of problems for the patient. The antioxidant response element (ARE) plays an important role in alleviating the harmful effects of oxidative stress. The antioxidant response element (ARE) is a transcriptional regulatory element involved in the activation of genes coding for a number of antioxidant proteins and detoxifying enzymes. These enzymes work in concert to protect tissues from oxidative insults and chemical toxicities in human hepatocytes and immune cells. The protective effects of ARE activation are primarily triggered through Nrf2 (NF-E2-related factor) binding to and activating AREs. It is known that Nrf2 controls the production of over 250 antioxidant and detoxification proteins (Hu et al., 2006), thereby protecting tissues by increasing cellular antioxidant content and suppressing inflammatory signaling pathways. The transcription factor Nrf2 is a central link between oxidative chemicals, such as phenolic antioxidants and electrophilic compounds, and the activation of ARE. Nrf2 levels are constitutively low as a consequence of its interaction with Keap1, which targets its degradation (Zipper and Mulcahy, 2002). Electrophiles react with key cysteine residues in Keap1, releasing Nrf2 and allowing its translocation to the nucleus. Once within the nucleus, Nrf2 complexes with coactivators such as p300, and binds to the AREs to induce gene transcription of cytoprotective enzymes, resulting in the prevention of toxicity. Activation of Nrf2 protects tissues by increasing cellular antioxidant content and suppressing inflammatory signaling pathways. Identifying novel and potent Nrf2 activators by using the AREc32 cell line to detect ARE activation by small molecules will lead to the identification and development of probes to study protective pathways in multiple tissues. These specific probes are essential to study the ARE pathway, and eventually to determine whether this pathway does activate genes that could protect against a host of diseases, including cardiovascular diseases, obesity, diabetes, Alzheimer's, and Parkinson's disease.
This project's aim is to identify novel and potent Nrf2 activators by using the AREc32 cell line to detect ARE activation by small molecules, which will lead to the identification and development of probes to study the ARE pathway.
NIH Chemical Genomics Center [NCGC]
NIH Molecular Libraries Probe Centers Network [MLPCN]
Assay Submitter (PI): Curtis Klaassen, University of Kansas Medical Center
5 uL of 1000 cells/well of AREc32_Fluc cells are seeded into 1536-well plate in OPTI-MEM medium with 5% FBS. The plates are incubated overnight at 37 deg C with 5% CO2. Then through pin tool transfer, 23 nL of compounds are added to each well before a 24 hr incubation at 37 deg C with 5% CO2. After the addition of 2.5 uL of Steady-Glo. the plates are kept at RT for 30 min, before they are read on the ViewLux.
For orientation: Quantitative high-throughput screening tests each substance at several concentrations.
As for `O=C(O)CNc1ccc([As](=O)(O)O)cc1`, the activation was inactive: -0.908%.
With `O=[N+]([O-])c1cccc(NC2=NCC(CBr)S2)c1` (stereo not given) the figure was inactive: 5.7%.
With `COC(=O)C1(C)COP(=O)(Nc2ccccc2)OC1` (stereo not given) the figure was inactive: -0.826%.
As for `O=[N+]([O-])c1ncn(CCn2ncnc2[N+](=O)[O-])n1`, the figure is inactive: 0.624%.
Consider `CC(C)(C)C(=O)NC(Sc1ccncn1)C(Cl)(Cl)Cl` (stereo not given), for which the activation is inactive: -0.883%.
Take `O=C(Nc1cc([As](=O)(O)O)ccc1O)c1ccccc1`: the activation was inactive: -0.582%.
With `O=P1(N(CCCl)CCCl)OCCCS1` (stereo not given), the activation is inactive: -0.0504%.
With `c1cc(-c2nn[nH]n2)ccc1-c1nn[nH]n1` the figure was inactive: -1.44%; with `CC1CCN(C(=O)Oc2c(Cl)cc(Cl)c3cccnc23)CC1`, inactive: 3.26%.
As for `CN(C)C(=O)OCCc1n(C)cc[n+]1C`, the figure is inactive: 0.0946%; as for `CC(C)=N/N=C(\N)N[N+](=O)[O-]`, inactive: 2.17%.
As for `CC(C)c1nc(Nc2ccccc2)n(P(=O)(N(C)C)N(C)C)n1`, the figure is inactive: -0.139%.
`CCN(/C(=N/P(=O)(N1CCOCC1)N1CCOCC1)N1CCOCC1)c1ccc(OC)cc1`: the activation was inactive: -0.328%.
As for `C[N+]1=C2C=CC=CC=C2SC12C([N+](=O)[O-])=CC([N+](=O)[O-])=C[C-]2[N+](=O)[O-]` (stereo not given), the figure is inactive: -2.75%.
For `Nc1ccc([As](=O)(O)c2ccc(N)cc2)cc1`, the activation was inactive: -0.319%.
With `CCc1nc2c(n1)c1c(non1O)c1c2no[n+]1[O-]` the figure was inactive: 7.53%; with `Cc1ccc(NP(=O)(Oc2ccccc2)Oc2ccccc2)nc1`, inactive: 0.473%.
With `CC(=O)N1C2C3N(C(C)=O)C1C1N(C(C)=O)C(C(N1C(C)=O)N3C(C)=O)N2C(C)=O` the figure was inactive: 0.305%.
Take `O=[N+]([O-])c1cccc2n[nH]nc12`: the activation was inactive: 0.561%.
As for `COc1ccc(C2=NCC(CBr)S2)cc1` (stereo not given), the figure is inactive: 0.0536%.
As for `O=[N+]([O-])C1C(O)C(O)C([N+](=O)[O-])C(O)C1O` (stereo not given), the figure is inactive: -0.0865%; as for `O=C(NC(Sc1ccncn1)C(Cl)(Cl)Cl)c1ccccc1` (stereo not given), inactive: 5.3%; as for `Oc1ccccc1CNc1ccccn1`, inactive: -0.416%.
As for `CC(C)CC(=O)NC(Sc1ccc(Cl)cc1)C(Cl)(Cl)Cl` (stereo not given), the figure is inactive: 0.309%.
Regarding `Nc1cc(N)c2nonc2c1[N+](=O)[O-]`, the activation is inactive: -0.507%.
As for `Clc1ccc(Cl)c(NC2=NCC(CBr)S2)c1` (stereo not given), the activation is inactive: 0.378%.
As for `CN1CCCC(OC(=O)C(c2ccccc2)c2ccccc2)C1` (stereo not given), the figure is inactive: 1.91%.
On to `Cc1ccc(OP(=O)(Nc2nccs2)Oc2ccc(C)cc2)cc1`, for which the activation is inactive: -0.632%.
On to `COc1ccccc1OP(=O)(Nc1ccc(C)cn1)Oc1ccccc1OC`, for which the activation is inactive: -0.614%.
For `Cc1ccc(N/C(=N/P(=O)(N2CCOCC2)N2CCOCC2)N2CCOCC2)cc1`, the activation was inactive: 0.0858%.
Consider `CN(C(=O)Cc1ccc(Cl)c(Cl)c1)[C@H]1CCCC[C@H]1N1CCCC1`, for which the activation was inactive: -0.757%.
With `NC(=O)c1cc([N+](=O)[O-])cc([N+](=O)[O-])c1N` the figure was inactive: 0.104%; with `Nc1cccc2ccc([As](=O)(O)O)cc12`, inactive: -0.594%; with `CCN(N=Nc1nonc1N)c1nonc1N`, inactive: -0.294%.
As to `CN(C(=O)Cc1ccc(Cl)c(Cl)c1)[C@H]1CCCC[C@@H]1N1CCCC1`, the activation was inactive: 0.83%.
For the compound `Cc1ccc(NP(=O)(Oc2ccccc2F)Oc2ccccc2F)nc1`, the activation was inactive: -0.4%.
With `CCOP(=O)(Nc1ccccc1)OCC` the figure was inactive: -0.925%.
As to `Cc1cc(SC(NC(=O)c2ccc(F)cc2)C(Cl)(Cl)Cl)ncn1` (stereo not given), the activation is inactive: -0.0747%.
With `CN(C)P(=O)(N(C)C)n1c(Nc2ccccc2)nnc1-c1ccccc1` the figure was inactive: 2.98%; with `O=P(Nc1nc2ccc(Cl)cc2s1)(c1ccccc1)c1ccccc1`, inactive: 4.7%; with `CCCC1OP(N)(=O)OCC1CC` (stereo not given), inactive: -1.12%.
Take `O=C(O)c1ccccc1[As](=O)(O)O`: the activation is inactive: 0.0138%.
Turning to `CC(=O)Nc1ccc([As](=O)(O)O)cc1`, the activation is inactive: -0.601%.
With `CN(C)C(=O)Oc1noc2ccccc12` the figure was inactive: 0.178%.
On to `O=c1c2cc([N+](=O)[O-])ccc2[nH]c2c([N+](=O)[O-])cc([N+](=O)[O-])cc12`, for which the activation was inactive: -0.255%.
As for `Cc1ccccc1OP(=O)(Nc1ccccn1)Oc1ccccc1C`, the figure is inactive: -0.143%; as for `CC(NC(=O)COC(=O)C(O)(c1ccccc1)c1ccccc1)c1ccccc1` (stereo not given), inactive: 0.0942%.
On to `CCC(=O)N1C2C3N(C(=O)CC)C1C1N(C(=O)CC)C(C(N1C(=O)CC)N3C(=O)CC)N2C(=O)CC`, for which the activation was inactive: -0.408%.
For the compound `O=C(OC1CN2CCC1CC2)c1ccccc1` (stereo not given), the activation is inactive: -1.35%.
Turning to `CC(=O)NC(SC(=S)N(CC(C)C)CC(C)C)C(Cl)(Cl)Cl` (stereo not given), the activation is inactive: -0.817%.
